2 compounds from patent publication US11254668B2, “Pyrazolo[1,5-A]pyrazin-4-yl and related derivatives” (Pfizer Inc., priority 2017, dated 2022) can be followed below.

By UniProt entry, the sequences of proteins in these tests, tags left out. Residues count along the entry.
UniProt P29597, 897-1176: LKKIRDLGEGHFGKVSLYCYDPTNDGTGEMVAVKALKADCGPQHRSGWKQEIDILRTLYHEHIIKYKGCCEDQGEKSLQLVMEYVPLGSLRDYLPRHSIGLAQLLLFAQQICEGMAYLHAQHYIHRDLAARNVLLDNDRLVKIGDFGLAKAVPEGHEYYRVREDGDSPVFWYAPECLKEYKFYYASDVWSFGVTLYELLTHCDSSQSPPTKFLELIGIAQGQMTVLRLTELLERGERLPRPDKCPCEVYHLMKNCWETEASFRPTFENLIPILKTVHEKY
UniProt P23458, 875-1153: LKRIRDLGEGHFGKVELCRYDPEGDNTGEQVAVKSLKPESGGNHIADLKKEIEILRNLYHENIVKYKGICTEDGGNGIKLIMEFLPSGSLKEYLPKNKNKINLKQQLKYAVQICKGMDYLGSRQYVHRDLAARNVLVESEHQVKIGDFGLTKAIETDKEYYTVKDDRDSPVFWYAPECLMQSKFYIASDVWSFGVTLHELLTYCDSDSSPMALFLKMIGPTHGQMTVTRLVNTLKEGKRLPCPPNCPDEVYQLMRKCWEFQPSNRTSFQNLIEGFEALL
UniProt P52333, 822-1111: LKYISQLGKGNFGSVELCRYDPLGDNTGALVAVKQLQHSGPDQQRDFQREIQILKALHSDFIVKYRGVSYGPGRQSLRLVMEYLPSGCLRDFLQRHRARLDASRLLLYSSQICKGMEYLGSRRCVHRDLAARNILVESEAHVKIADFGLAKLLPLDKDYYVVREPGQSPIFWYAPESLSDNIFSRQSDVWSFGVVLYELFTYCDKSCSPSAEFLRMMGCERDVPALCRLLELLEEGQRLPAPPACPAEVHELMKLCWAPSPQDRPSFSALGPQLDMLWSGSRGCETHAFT
UniProt O60674, 849-1124: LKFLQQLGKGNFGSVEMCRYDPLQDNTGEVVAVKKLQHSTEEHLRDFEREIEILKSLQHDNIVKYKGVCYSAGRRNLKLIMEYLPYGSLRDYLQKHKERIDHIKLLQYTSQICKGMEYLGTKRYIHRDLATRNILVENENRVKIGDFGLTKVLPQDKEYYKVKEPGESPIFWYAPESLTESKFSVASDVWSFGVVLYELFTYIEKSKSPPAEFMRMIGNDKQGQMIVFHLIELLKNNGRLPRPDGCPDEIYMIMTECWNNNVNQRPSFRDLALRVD

Read-outs that look alike come from different tables or passages of the source. Where only a bound is given, the exact number is not on record here.

What all share (format): biochemical
One experiment addresses TYK2 (Homo sapiens (Human), UniProt P29597). The experiment can be described thus: JAK Caliper Enzyme Assay at 1 mM ATP, TYK2. How it is done:
(§1) Compounds of the invention were evaluated by in vitro methods to determine their respective ability to inhibit the JAK kinases (TYK2, JAK1, JAK2, JAK3).
(§2) The human JAK inhibitory activity was determined by using a microfluidic assay to monitor phosphorylation of a synthetic peptide by the recombinant human kinase domain of each of the four members of the JAK family, JAK1, JAK2, JAK3 and TYK2. […] Each assay condition was optimized for enzyme concentration and room temperature incubation time to obtain a conversion rate of 20% to 30% phosphorylated peptide product. Reactions were terminated by the addition of stop buffer containing EDTA. Utilizing the LabChip 3000 mobility shift technology (Caliper Life Science), each assay reaction was sampled to determine the level of phosphorylation. This technology is separation-based, allowing direct detection of fluorescently labeled substrates and products. […]
(§3) The data was collected using the HTS Well Analyzer software from Caliper Life Sciences. The data output for data analysis is the percent product converted calculated on peak height (Equation 1). % product converted=100*((product)/(product+substrate)) Equation 1: […]
(§4) The percent effect at each compound concentration was calculated based on the positive and negative control well contained within each assay plate (Equation 2). […]

In another experiment the target is JAK1 (Homo sapiens (Human), UniProt P23458). The experiment can be described thus: JAK Caliper Enzyme Assay at 1 mM ATP, JAK1. The protocol: as §1, §2, §3, §4
Another experiment has as its target JAK3 (Homo sapiens (Human), UniProt P52333). The experiment can be described thus: JAK Caliper Enzyme Assay at 1 mM ATP, JAK3. The protocol: as §1, §2, §3, §4
A further experiment addresses JAK2 (Homo sapiens (Human), UniProt O60674). The experiment can be described thus: JAK Caliper Enzyme Assay at 1 mM ATP, JAK2. How it is done:
as §1, §2, §3, §4

The IC50 is the concentration that inhibits the measured activity by half.

Take `N#CC[C@]1(n2ncc(-c3cc(-c4cncc(N)n4)cc4ncccc34)n2)C[C@H](C#N)C1` [Example 397, trans-3-{4-[7-(6-aminopyrazin-2-yl)quinolin-5-yl]-2H-1,2,3-triazol-2-yl}-3-(cyanomethyl)cyclobutanecarbonitrile]: on TYK2 (JAK Caliper enzyme assay), the IC50 worked out at 2.33 µM.

On to “[trans-3-(1-methyl-1H-pyrazol3-[7-(1H-pyrazol-4-yl)-1,6-naphthyridin-5-yl]-1H-pyrazol-1-yl}cyclobutyl]acetonitrile [Example 87]”, for which the 50% inhibitory concentration (IC50) is above 10 µM on JAK1, 2.32 µM on TYK2, above 10 µM on JAK3 and above 10 µM at JAK2.
